Among all 320,000 compounds or so, about 200 (0.062%) were called active. All entries are inconclusive by the source's own rule. Clear calls are listed elsewhere. The call rests on the fitted dose curve; in most records, active means well fitted activation curve with a large enough effect; inconclusive means small, poorly fitted or top-dose-only effect; inactive means no such curve, though single readings can be large or run the other way.
Test: qHTS assay for re-activators of p53 using a Luc reporter; further: nearly all actives have a fitted effect of over 45% in size
Settings: H1299 p53-A138V BP100-luciferase reporter, luminescence, 24 h
Source text: The p53 tumor suppressor plays a key role in suppression of tumorigenesis and in human carcinogenesis. It is frequently found inactivated in human cancers, mainly by point mutation. These point mutations are found in a wide variety of human cancers and a majority of them affect the DNA binding domain of the protein. The point mutations either alter native p53 conformation or abolish DNA contact. Additionally, cancer cells with p53 mutations are more resistant to chemo-radiation therapies. In order to find activators to reactivate this important protein, a cell-based screen for p53-dependent luciferase-reporter expression was developed. A p53-null H1299 lung cancer cell line was stably co-transfected with a temperature sensitive p53 mutant, p53-A138V, and a p53-responsive BP100-luciferase reporter. This cell model has previously been characterized in a gene chip profiling experiment for p53 activation. By lowering the culture temperature from 37 deg C (mutant p53 conformation) to 32 deg C (w.t. p53 conformation), a 30-60 fold increase in activation of luciferase activity is observed. At assay temperate, 37 deg C, basal reporter expression is very low and after the addition of detection reagent, a luminescent read-out is carried out. NIH Chemical Genomics Center [NCGC] NIH Molecular Libraries Probe Production Centers Network [MLPCN] MLPCN Grant: DA031088-01A1 Assay Provider (PI): Yi Sung, University of Michigan at Ann Arbor
5ul of 1000 cells per well are dispensed in all wells except column 4, into white solid-bottom TC-treated Kalypsys plates. The cells are kept in Opti-MEM and supplemented with 10% FBS and dispensed using a Multidrop (Thermo). Then using the Kalypsys pin-tool, 23nl of compounds are pinned. The compounds are starting concentration at 10mM, with 1:5 dilution, 4 points, and the control compound nocodazole is pinned in column 1 at 25mM, 1:3 dilution, in duplicate, 25mM nocodazole is pinned in column 2. Please note, all concentrations are working concentrations. 5ul of 1pM purified luciferase enzyme is dispensed using the Kalypsys dispenser in column 4. Plates are incubated for 24 hrs at 37 deg C, 5% CO2, and 95% humidity. Then 4ul of the detection reagent Amplite (ABD Bioquest) is added using the Kalypsys dispenser. Plates are incubated for 10 min at ambient room temperature and are then read on the ViewLux (Perkin Elmer) using a clear filter for a luminescent read-out.
Potency means the concentration at half of the fitted maximal effect.

Structure (SMILES)	Potency
ClCCSc1nnc(-c2cccnc2)o1	inconclusive: 44.7 µM
Cc1ccc2nc3c(c(C)c2c1)CC(C(Cl)Cl)S3 (centres undefined)	inconclusive: 28.2 µM
CCC(C)N(CC(C)C)C(=S)SC(NC(C)=O)C(Cl)(Cl)Cl (centres undefined)	inconclusive: 50.1 µM
Cc1ccc(NCCc2c([N+](=O)[O-])cc([N+](=O)[O-])cc2[N+](=O)[O-])cc1	inconclusive: 10 µM
